# AlphaSeq binding of Ab-14 heavy chain variants to a spike HR2 peptide

Reference: Li et al. 2023, doi:10.1038/s41467-023-39022-2. File: FLAb, binding data.

Target peptide (SARS-CoV-2 spike, HR2 region): PDVDLGDISGINAS

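Designed CDR sequences, proposed from the first random library and measured here. Their group label is 14H_En_HC (En: ensemble of fine-tuned language models; HC: hill climbing; a sequence that several methods proposed may carry one label only). The assay is AlphaSeq: two haploid yeast populations carry antibody and antigen on their surface. Pairs that bind mate more often; barcode pairs of the diploids are counted by sequencing. Read counts were normalised to the haploid input and turned into Kd by a linear fit to BCL2-family pairs of known affinity, for each replicate. Each pool was mated in six replicate cultures.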

Each scFv is VH, the linker GGGGSGGGGSGGGGS, VL, as in the parent Ab-14, and differs from it in the CDRs of the heavy chain only.
VH: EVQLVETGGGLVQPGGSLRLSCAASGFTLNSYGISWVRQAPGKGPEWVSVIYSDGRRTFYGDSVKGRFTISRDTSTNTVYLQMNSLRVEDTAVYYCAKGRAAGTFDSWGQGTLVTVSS
VL: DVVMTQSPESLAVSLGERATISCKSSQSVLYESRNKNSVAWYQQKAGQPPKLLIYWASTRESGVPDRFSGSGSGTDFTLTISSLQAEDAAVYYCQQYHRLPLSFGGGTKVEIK

Each variant is given by its three heavy chain CDRs, as the data file delimits them; those of the parent are GFTLNSYGIS, VIYSDGRRTFYGDSVK, GRAAGTFDS.
Numbers give log10(Kd / nM), so 0 is 1 nM and 3 is 1 µM. Smaller is tighter.
"ND" means that the variant was in the library but no mating with the target was seen in that replicate; the authors take this as a sign of poor binding, and no number exists.
As a blank, each scFv also met three strains without target: over all heavy chain designs, 1% of these pairings were detected, typically at 2.08 and seldom below 0.84. For each scFv, signals with the empty controls are counted beside the result, with their mean in brackets.
The range of this assay differs from that of the first round, and the authors advise against merging the two.
The authors averaged sequences with at least three values out of six and counted those with two or fewer as poor binders.

CDR-H1,CDR-H2,CDR-H3,"replicates, log10 nM",signal with controls
GFDLDEYGIS,VIYADGRRTAYQDSVK,GNVAGTFDS,-1.10 / -0.90 / -0.87 / -1.55 / -0.86 / -0.70,0 of 18
GFDLNEYGIS,VIYADGKRTFYTDNVK,GQNAGTFDV,-0.98 / -0.99 / -1.05 / -1.09 / -1.37 / -0.93,1 of 18 (0.95)
GFDINEYGIS,VIYADGRRTFYTDSVK,GGNAGTFDI,-0.25 / -0.01 / -0.44 / -0.48 / -0.46 / -0.17,1 of 18 (2.97)
GFDLNEYGIS,VIYADGRRTFYSDSVK,GEVAGTFVL,0.70 / -0.18 / 0.22 / -0.15 / 0.06 / 0.36,0 of 18
GFDLNEYGIS,VIYADGLRTFYTDSVK,GEVAGTFDV,-0.40 / -0.56 / -0.65 / -0.78 / -0.63 / -0.67,0 of 18
GFNLNEYGIS,VIYADGRRTFYADSVK,GQQAGTFVM,-0.08 / -0.06 / -0.47 / -0.59 / -0.27 / -0.08,0 of 18
GFDLNEYGIS,VIYADGRRTFYIDSVK,GEIAGTFDM,0.09 / -0.10 / -0.30 / -0.20 / -0.18 / -0.01,0 of 18
GFDLNEYGIS,VIYADGRRTFYSDSVK,GNVAGTFDI,-0.46 / -0.65 / -0.80 / -0.73 / -0.62 / -0.85,1 of 18 (1.18)
GFQLNEYGIS,VIYADGRRTFYADNVK,GNVAGTFDQ,-0.17 / -0.45 / -0.30 / -0.34 / -0.24 / -0.26,0 of 18
GFDLNEYGIS,VIYADGMRTFYTDSVK,GGNAGTFDV,-0.24 / -0.23 / -0.51 / -0.39 / -0.11 / 0.13,0 of 18
GFDLNEYGIS,VIYADGQRTFYSDSVK,GQLAGTFDV,-0.17 / -0.77 / -0.23 / -0.02 / -0.99 / -0.63,0 of 18
GFDINEYGIS,VIYADGRRTFYADSVK,GQTAGTFDD,-0.39 / -0.39 / -0.60 / -0.65 / -0.62 / -0.50,2 of 18 (2.42)
GFDLNEYGIS,VIYADGRRTFYTDSVK,GKAAGTFDQ,-0.48 / -0.60 / -0.71 / -0.80 / -0.61 / -0.55,0 of 18
GFDLNEYGIS,VIYADGRRTFYKDSVK,GNAAGTFDQ,-0.67 / -0.56 / -0.53 / -0.75 / -0.54 / -0.28,0 of 18
GFDLNDYGIS,VIYADGRRTAYIDSVK,GEVAGTFDQ,-0.05 / 0.21 / 0.66 / 0.90 / 0.49 / 0.79,0 of 18
GFDLNEYGIS,VIYADGRRTFYADSVK,GNEAGTFDM,-0.46 / -0.52 / -0.06 / -0.15 / -0.44 / -0.56,0 of 18
GFDLNEYGIS,VIYADGRRTAYADSVK,GNQAGTFDS,0.04 / -0.73 / -0.90 / -0.68 / -0.42 / -0.74,0 of 18
GFDLNEYGIS,VIYADGRRTFYADSVK,GQNAGTFVL,ND / ND / ND / ND / ND / ND,1 of 18 (1.49)
GFDLNEYGIS,VIYADGRRTAYQDSVK,GQLAGTFDT,-0.63 / -0.79 / -0.97 / -0.78 / -0.82 / -0.76,0 of 18
GFDIDEYGIS,VIYADGRRTFYADSVK,GTNAGTFDS,0.36 / -0.18 / -0.28 / -0.19 / -0.14 / 0.13,0 of 18
GFDLNEYGIS,VIYADGRRTFYQDSVK,GTAAGTFDQ,ND / ND / ND / ND / ND / ND,0 of 18
GFDLNEYGIS,VIYADGRRTAYSDSVK,GHAAGTFDV,0.16 / -0.54 / -0.43 / -0.13 / -0.35 / -0.40,0 of 18
GFDLNEYGIS,VIYADGRRTFYTDSVK,GENAGTFDS,ND / ND / ND / ND / ND / ND,0 of 18
GFDLNEYGIS,VIYADGRRTAYSDSVK,GVNAGFFDS,ND / ND / ND / ND / ND / ND,0 of 18
GFDLNEYGIS,VIYADGVRTFYTDNVK,GQNAGTFDV,-0.49 / -0.43 / -0.57 / -0.69 / -0.68 / -0.49,0 of 18
GFSLDEYGIS,VIYADGRRTFYADSVK,GNSAGTFDI,0.47 / 0.11 / -0.08 / 0.13 / -0.22 / -0.06,0 of 18
GFNLDEYGIS,VIYADGRRTFYADSVK,GENAGTFDT,-0.28 / -0.76 / -0.82 / -0.52 / -0.67 / -0.14,0 of 18
GFDLNEYGIS,VIYADGRRTFYADSVK,GQIAGTFDI,-0.49 / -0.69 / -0.50 / -0.70 / -0.46 / -0.44,0 of 18
GFDLNEYGIS,VIYADGRRTYYSDSVK,GNVGGTFDI,-0.68 / -0.67 / -1.02 / -0.75 / -1.28 / -0.78,2 of 18 (1.01)
GFDLNEYGIS,VIYADGRRTFYKDSVK,GTNGGTFDV,-0.29 / -0.24 / 0.28 / -0.23 / -0.41 / 0.44,1 of 18 (1.55)
GFDLNEYGIS,VIYADGMRTHYTDSVK,GNTAGTFDS,0.92 / 0.93 / 1.18 / 0.37 / 1.54 / ND,0 of 18
GFDLNEYGIS,VIYADGVRTFYSDSVK,GEIAGTFDQ,0.82 / -0.88 / -0.28 / -1.03 / -0.40 / -0.63,0 of 18
GFDLNEYGIS,VIYADGRRTFYIDSVK,GEAAGTFVM,0.79 / 0.76 / 1.98 / 0.44 / 0.60 / 0.60,0 of 18
GFDLNEYGIS,VIYADGLRTSYVDSVK,GQLAGTFDQ,-0.49 / -0.33 / -0.67 / -0.48 / -0.35 / -0.44,0 of 18
GFDLNEYGIS,VIYADGRRTAYIDSVK,GHVAGTFDV,-0.50 / -0.75 / -0.66 / -0.87 / -0.64 / -0.49,0 of 18
GFDLNEYGIS,VIYADGRRTQYIDSVK,GNEAGTFDM,ND / ND / ND / ND / ND / ND,0 of 18
GFNLNEYGIS,VIYADGRRTFYSDSVK,GEAAGTFDM,ND / ND / 0.25 / ND / 0.28 / ND,0 of 18
GFDLNEYGIS,VIYADGLRTFYADSVK,GEFAGTFDV,-0.20 / 0.01 / -0.26 / -0.28 / -0.16 / -0.33,1 of 18 (1.91)
GFDLNEYGIS,VIYADGKRTFYTDSVK,GEVAGTFDV,-0.22 / -0.19 / -0.22 / -0.03 / -0.37 / -0.21,2 of 18 (1.83)
GFDLNEYGIS,VIYADGRRTAYADSVK,GSEAGTFDM,-0.04 / -0.28 / -0.44 / -0.47 / -0.39 / -0.22,0 of 18
GFDLNEYGIS,VIYADGQRSFYADSVK,GQLAGTFDS,0.37 / -0.46 / -0.95 / -1.62 / -1.41 / -1.13,0 of 18
GFDLNEYGIS,VIYADGVRTFYIDSVK,GENAGTFDV,-0.14 / -0.40 / -0.36 / -0.38 / -0.32 / -0.21,0 of 18
GFDLDEYGIS,VIYADGRRTFYADSVK,GTNAGTFLT,-0.06 / -0.65 / -0.08 / 0.12 / -0.37 / 0.14,0 of 18
GFDLNEYGIS,VIYADGRRTFYSDSVK,GQTAGTFDT,-0.31 / -0.31 / -0.59 / -0.56 / -0.59 / -0.08,0 of 18

The 5 strongest on average among those seen in every replicate, once more:

CDR-H1,CDR-H2,CDR-H3,"replicates, log10 nM",signal with controls
GFDLNEYGIS,VIYADGKRTFYTDNVK,GQNAGTFDV,-0.98 / -0.99 / -1.05 / -1.09 / -1.37 / -0.93,1 of 18 (0.95)
GFDLDEYGIS,VIYADGRRTAYQDSVK,GNVAGTFDS,-1.10 / -0.90 / -0.87 / -1.55 / -0.86 / -0.70,0 of 18
GFDLNEYGIS,VIYADGQRSFYADSVK,GQLAGTFDS,0.37 / -0.46 / -0.95 / -1.62 / -1.41 / -1.13,0 of 18
GFDLNEYGIS,VIYADGRRTYYSDSVK,GNVGGTFDI,-0.68 / -0.67 / -1.02 / -0.75 / -1.28 / -0.78,2 of 18 (1.01)
GFDLNEYGIS,VIYADGRRTAYQDSVK,GQLAGTFDT,-0.63 / -0.79 / -0.97 / -0.78 / -0.82 / -0.76,0 of 18